Measurements reported in publication PMC7927569 (Journal of the American Chemical Society, 2020).

Experiment: Size exclusion chromatography
Format: physicochemical
Conditions: 1.0 mg/mL peptide, 50 mM Tris pH 7.4, 150 mM NaCl, Superdex 75 Increase 10/300

H-DAEFRHDSGYEVHH-NH2 [peptide 2]
SEC elution volume, peak assigned to monomer: 17.6 mL
